These results are taken from patent US10407463B2, “Method for producing alpha-form crystal of reduced glutathione, and method for storing said crystal” (KYOWA HAKKO BIO CO., LTD., priority 2015, dated 2019).

Data set [1] can be described thus: Suppression of transition to β-form crystal by habit modifier in α-form crystal slurry (Example 1). The class given is physicochemical. The following applies: 0.45 g added to 9 g α-form crystals in 30 mL water; 25° C., 24 hr; microscopic observation. The method, then: α-Form crystals of reduced glutathione (9 g) and water (30 mL) were mixed in a glass bottle. […] The glass bottle was shaken in a tray dryer set to 25° C. for 24 hr.

Data set [2] is described as follows: Concentration crystallization of reduced glutathione with habit modifier, production method (1) (Example 5). The following applies: 2.5 g added to 50 g reduced glutathione; concentrate cooled to 25° C., stirred 24 hr; microscopic observation. The class given is physicochemical. The method, then: Reduced glutathione (50 g) and water (500 mL) were added to a 1 L beaker. […] The prepared solution (filtrate) was concentrated by an evaporator such that the concentration of reduced glutathione was not less than the saturation solubility of α-form crystal to perform concentration crystallization of reduced glutathione.

For data set [3] the following is noted: 430 nm; crystals immersed in 5 wt % additive solution, kept at 40° C. 3 hr, 1 g dissolved in 10 mL water at 25° C.

oxidized glutathione [GSSG]: the “transition of α-form crystal to β-form crystal” value in data set [1] is given as “suppression of the transition”. Besides, the crystal form produced result in data set [2] is “produced α-form crystal alone”. Moreover, in data set [3], the “permeability (%)” value is recorded as 99%.
